Test results taken from article PMC7493195 (Journal of medicinal chemistry, 2020).

Chains of the proteins cited; added tags and fusions are not shown.
UniProt P07947, whole entry: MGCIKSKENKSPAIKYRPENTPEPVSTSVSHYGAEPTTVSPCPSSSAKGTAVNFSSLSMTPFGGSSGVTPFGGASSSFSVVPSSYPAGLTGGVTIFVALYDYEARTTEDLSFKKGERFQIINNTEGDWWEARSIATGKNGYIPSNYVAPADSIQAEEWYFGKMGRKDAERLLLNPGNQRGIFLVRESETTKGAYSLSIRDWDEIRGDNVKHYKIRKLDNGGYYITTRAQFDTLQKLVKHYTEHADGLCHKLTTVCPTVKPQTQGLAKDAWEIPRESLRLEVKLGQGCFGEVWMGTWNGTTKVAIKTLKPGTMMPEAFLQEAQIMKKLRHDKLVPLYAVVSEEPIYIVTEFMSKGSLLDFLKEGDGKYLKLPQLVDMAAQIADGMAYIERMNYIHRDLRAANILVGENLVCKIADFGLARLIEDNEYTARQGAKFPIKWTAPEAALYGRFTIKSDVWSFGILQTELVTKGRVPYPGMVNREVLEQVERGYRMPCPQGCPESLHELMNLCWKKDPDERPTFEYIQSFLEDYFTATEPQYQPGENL

Tests used:
[1] = test system: MDA-MB-231, H1975 and HCC827 cells; settings: 72 h, three cell lines
YES1 = YES1 (Homo sapiens, UniProt P07947); settings: H1975 and HCC827 cells, 1 μM, 2 h
[2] = test system: panel of 468 human kinases; assay type: binding
SRC = SRC (Mus musculus, UniProt P05480); settings: 3 doses of 5 mg/kg IP, 2 and 4 h after last dose

| SMILES | growth inhibitory potency, in words [1] | cellular engagement of YES1 (YES1) | inhibition of MEK family kinases [2] | number of kinases inhibited [2] | SRC binding and inhibition in spleen (SRC) |
| --- | --- | --- | --- | --- | --- |
| CCC(=O)Nc1ccccc1Nc1nc(Nc2ccc(N3CCN(C)CC3)cc2)ncc1C(=O)Nc1c(C)cccc1Cl [Compound 20f, N-(2-Chloro-6-methylphenyl)-2-((4-(4-methylpiperazin-1-yl)-phenyl)amino)-4-((2-propionamidophenyl)amino)pyrimidine-5-carboxamide] | weaker potency compared to 15a |  |  |  |  |
| C=CC(=O)Nc1ccccc1Nc1nc(Nc2ccc(N3CCN(C)CC3)cc2)ncc1C(=O)Nc1c(C)cccc1Cl [Compound 15a, 4-((2-Acrylamidophenyl)amino)-N-(2-chloro-6-methylphenyl)-2-((4-(4-methylpiperazin-1-yl)phenyl)amino)pyrimidine-5-carboxamide] |  | potential covalent target | not inhibited | around 20 kinases | SRC binding and inhibition at both 2 and 4 h postdosing |
